Drawing on ChEMBL document CHEMBL3352005, “Synthesis of a novel universal opioid receptor agonist with the 1,3,5-trioxazatriquinane skeleton and its pharmacologies” (Bioorg Med Chem Lett, 2014), this text covers Ki for one molecule.

Chains of the proteins cited; added tags and fusions are not shown.
UniProt P32300, whole entry, looked up: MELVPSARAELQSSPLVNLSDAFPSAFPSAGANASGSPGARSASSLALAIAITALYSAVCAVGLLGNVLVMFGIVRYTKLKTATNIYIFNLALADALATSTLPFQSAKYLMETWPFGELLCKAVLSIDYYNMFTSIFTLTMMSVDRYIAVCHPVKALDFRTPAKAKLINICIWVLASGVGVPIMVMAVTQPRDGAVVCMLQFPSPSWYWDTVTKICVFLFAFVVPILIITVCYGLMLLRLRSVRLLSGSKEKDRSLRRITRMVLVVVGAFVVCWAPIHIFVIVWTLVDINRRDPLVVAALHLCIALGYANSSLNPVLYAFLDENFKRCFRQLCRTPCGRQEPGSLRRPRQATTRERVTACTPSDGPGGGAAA

Where only a bound is given, the exact number is not on record here.

This experiment concerns the target Delta-type opioid receptor (Mus musculus, UniProt P32300). Description: Displacement of [3H]DPDPE from mouse whole brain DOR. On the technique in general: Displacement assays read how much labelled ligand stays bound in the presence of the test substance.

Usually Ki stands for the dissociation constant of the complex between target and ligand, obtained from inhibition or displacement. A low value points to tighter binding. `CN(C(=O)Cc1ccccc1)[C@H]1CC[C@@]2(CCCO2)C[C@@H]1N1CCCC1` yielded a Ki of over 1 µM.
